Laboratory results published in patent US20180113119A1, “METHODS FOR CHARACTERIZING TIME-BASED HEPATOTOXICITY” (HUREL CORPORATION, priority 2015, published 2018).

System: primary human hepatocyte cocultures vs HepG2 cells
Test: Toxicity curve of primary human hepatocyte coculture compared to HepG2 cells, Promega ATP assay
Conditions: four days exposure, one repeat dose on second day

CC(=O)N1CCN(c2ccc(OCC3COC(Cn4ccnc4)(c4ccc(Cl)cc4Cl)O3)cc2)CC1 (stereo not shown) [ketoconazole]
shift of human hepatocyte coculture toxicity curve as compared to HepG2 cell toxicity curve: right shift
